Source: patent publication US8030025B2, “Antibodies directed to angiopoietin-1 and angiopoietin-2 and uses thereof” (Amgen Inc., dated 2011)

Assays:
Cyno Ang1 = Cyno Ang1 (cynomolgus monkey, UniProt A0A2K5VW43); test: neutralization ELISA; coated angiopoietin vs Tie2-Fc
[1] = target: biotinylated human angiopoietin 2 (human, UniProt O15123, biotin); test: HTRF neutralization; biotin-hAng2 vs huTie-2-Fc-APC
[2] = target: biotinylated human angiopoietin 1 (human, UniProt Q15389, biotin); test: HTRF neutralization; biotin-hAng1 vs huTie-2-Fc-APC

Row | Binder | IC50 (Cyno Ang1) | IC90 [1] | IC50 [2] | IC90 [2]
1 | H4L11 (IgG2) (antibody, V domains shown) VH: EVQLVQSGGGVVQPGRSLRLSCAASGFTFSSYGMHWVRQAPGKGLEWVSYISSSGSTIYYADSVKGRFTISRDNAKNSLYLQMNSLRAEDTAVYYCARDLLDYDLLTGYGYWGQGTLVTVSS VL: not shown | 14 nM |  |  | 
2 | H5L1 (antibody, V domains shown) VH: EVQLVQSGGGVVQPGRSLRLSCAASGFTFSSYGMHWVRQAPGKGLEWVSYISSSGSTIYYADSVKGRFTISRDNAKNSLYLQMNSLRAEDTAVYYCARDLLDYDIWTGYGYWGQGTLVTVSS VL: not shown |  | 0.29 nM | 1.7 nM | 24 nM
3 | H5L12 (antibody, V domains shown) VH: EVQLVQSGGGVVQPGRSLRLSCAASGFTFSSYGMHWVRQAPGKGLEWVSYISSSGSTIYYADSVKGRFTISRDNAKNSLYLQMNSLRAEDTAVYYCARDLLDYDIWTGYGYWGQGTLVTVSS VL: not shown |  | 0.31 nM | 14 nM | 159 nM
